T1: hS100A9 (Homo sapiens, UniProt P06702)
T1 construct: made in house; host or cells: Escherichia coli (or purified from granulocytes)
T1 sequence (P06702 1-114): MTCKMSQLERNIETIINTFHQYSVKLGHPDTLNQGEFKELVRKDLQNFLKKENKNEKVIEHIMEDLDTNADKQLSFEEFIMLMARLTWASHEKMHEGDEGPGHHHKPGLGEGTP

B1: human S100A9 (natural protein, UniProt P06702 1-114, looked up)
chain: T1 sequence (P06702 1-114)
notes: S100A9, human; called homodimeric; also called hS100A9; homodimeric S100A9; source: either produced recombinantly in Escherichia coli or purified from granulocytes

Assays:
[1] = target: T1, hS100A9; assay: SPR: analytes injected over immobilised hS100A9; details: 100 nM analyte, 1:1 model with mass transfer; read-out: KD, binding to immobilised hS100A9
Description: The SPR analysis was carried out with the Biacore 3000 system (GE Healthcare). Sensor chips, amine coupling kit, immobilization and running buffers, and regeneration solutions were obtained from GE Healthcare. Working solutions of all reagents used for Biacore analysis were prepared in 0.01 M Hepes, 0.15 M NaCl (pH 7.4) containing 0.005% v/v Surfactant P-20 (HBS-P; GE Healthcare) by buffer exchange on Fast Protein Desalting Micro-Spin Columns from Pierce. ABR-215757 was immobilised onto a CM5 chip through an amino-linker (ABR-224649). Other reagents (i.e., RAGE, TLR4/MD2, and various antibodies) were immobilised to the aimed density using random amine coupling chemistry. Activity of ligands after immobilisation was tested by injecting specific antibodies (unpublished data). In some experiments, S100A9 was immobilized either by random amine coupling or with a known orientation (i.e., by sulhydryl group conjugation to the only cysteine in S100A9 at position 3).
Supplementary file pbio.1000097.sg004.pdf: Figure S4 Binding of hS100A9 to hRAGE/Fc and hTLR4/MD2 Is Not Due to hFc or hMD2 (A) 100 nM RAGE/Fc or Fc was injected over hS100A9 immobilized via the SH-group of the only cysteine in position 3 (left panel). (B) Left: 100 nM TLR4/MD2 or MD2 injected over amino-coupled hS100A9. […] Fab 43/8 was injected at 50–200 nM to verify activity of immobilized hS100A9 (right). […]

[2] = target: T2, recombinant human RAGE/Fc (human, UniProt Q15109 23-342); assay: SPR; 100 nM RAGE/Fc or Fc injected over hS100A9 immobilised via the SH-group of the only cysteine in position 3; fit to a 1:1 model with mass transfer; details: both partners purified
T2 construct: RAGE (receptor for advanced glycation end products), human; human IgG1 Fc was used as the control for the Fc part; also called hRAGE; rhRAGE/Fc; source: bought: R&D Systems (carrier-free recombinant)

Molecule	Kd [1]	Kd [2]
RAGE: carrier-free recombinant human RAGE/Fc	3.4 nM	–
B1	–	3.4 nM
